The values below are quoted from earlier work in patent publication US20220304980A1, “METERED DOSING COMPOSITIONS AND METHODS OF USE OF P[…]” (SW Holdings, Inc, priority 2019, published 2022).

In the data set the test system is 5-HT2A/2C receptor. As to conditions: cited from earlier work.

Consider `CC[C@@H](CO)NC(=O)[C@@H]1C=C2c3cccc4c3c(cn4C)C[C@H]2N(C)C1` [Methysergide], for which the “effect on serotonin actions” value is “inhibits the vasoconstrictive and pressor effects of serotonin as well as the serotonin actions on extravascular smooth muscle”.
